Molecular target: σ1 receptor (Cavia porcellus, UniProt Q60492)
Assay: σ1 receptor binding affinity, competition against
Settings: read-out: Ki σ1; homogenate of guinea pig brain; tested as oxalate; mean ± SD

By UniProt entry, the sequences of proteins in these tests, tags left out.
UniProt Q60492, whole entry: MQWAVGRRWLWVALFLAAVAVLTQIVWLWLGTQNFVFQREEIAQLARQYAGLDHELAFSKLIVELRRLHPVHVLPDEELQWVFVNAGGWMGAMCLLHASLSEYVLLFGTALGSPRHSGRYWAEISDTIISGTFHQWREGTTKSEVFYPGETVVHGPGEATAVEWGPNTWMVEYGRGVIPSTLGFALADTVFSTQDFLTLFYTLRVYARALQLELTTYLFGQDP

(-)-vesamicol [reference compound] was tested. Which Ki did it give?
The Ki was 25.8 ± 8 nM.

Reference: paper PMC6422167 (ChemMedChem, 2018)
